Each structure is given as a SMILES string.

Data set [1] can be described thus: Oxidative metabolic stability in murine microsomes. To be noted: relative to NAcM-OPT.
In another data set the test system is HCC95 cells. As to conditions: dose-response up to 30 μM, 5 hours.

Regarding `CCN1C(=O)[C@@H](NC(=O)c2cccc(C)c2)[C@@H](c2ccc(F)cc2)c2c(C)nn(-c3ccccc3)c21` (relative stereo) [Compound 27, N-(rel-(4S,5S)-7-ethyl-4-(4-fluorophenyl)-3-methyl-6-oxo-1-phenyl-4,5,6,7-tetrahydro-1H-pyrazolo[3,4-b]pyridin-5-yl)-3-methylbenzamide], the “Murine microsomal stability compared with that previously reported for NAcM-OPT” value in data set [1] was no more than 2 fold. In the data set on HCC95 cells, the “Effect on reactive oxygen species (DCFDA)” value was “neither 27, 87, nor NAcM-OPT have any measurable effects on reactive oxygen species”.

For the origin of these results see publication PMC7228038 (Journal of medicinal chemistry, 2019).
